# Screening results from PubChem BioAssay.
# A549 viability – counter-screen for Nrf2 inhibitors: cytotoxicity in A549 cells; A549 ARE-Fluc cells, CellTiter-Fluor viability, 18-24 h; Potency, µM (highest dose often 46 µM), without a hit: top-dose activity change, negative = cytotoxicity, actives largely listed as inhibitors; 390,000 compounds, 0.16% hits; AID 504648; also: potency is read from the fitted curve at half-maximal effect; % is scaled to controls: 0 for no effect and ±100 for the full control effect
#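 A549 ARE_Fluc cells in 5% FBS OPTI-MEM were exposed to compounds in concentration-response for 18-24 h at 37 deg C. Viability was read by CellTiter-Fluor fluorescence (Ex 405/Em 525) after 30 min, before the luciferase read.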
# PI4K2A block – inhibitors of human PI4K2A; Q9BTU6; 420,000 compounds, 0.13% hits; activity change, negative = inhibition, % at 76.9 µM; AID 1346378; purified PI4K2A, ADP-Glo luminescence, 1 h; active compounds read low; in the data active = activity change below about -50%; inconclusive = mostly about -30% to -49%;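 also: -100% = wells without enzyme as full effect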
#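 ADP-Glo luminescence measured ADP generated by PI4K2A enzyme (4 ug/mL before mixing) with 1.2 mM PI substrate (pre-mix) and 300 microM ATP (pre-mix). Tris pH7.5 buffer with MgCl2, Triton X-100; 1 h reaction at ambient temperature.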
# Nrf2 activator – Nrf2 pathway activation. AREc32 ARE-luciferase reporter (MCF7-derived line), luminescence, 24 h. Potency, µM (doses to about 46.1 µM), inactives show at the top dose activation, actives largely listed as activators. 410,000 compounds, 0.31% hits; also: potency is read from the fitted curve at half-maximal effect; % of control where 0% means no effect; nearly all actives have a fitted effect of over 65% in size
#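 Nrf2 activation is followed as ARE-luciferase induction in the AREc32 line after one day of compound treatment; luminescence is read with Steady-Glo.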
# miR-21 reporter – raises the signal of a miR-21 reporter; HeLa miR-21 FLuc reporter, luciferase, 48 h; Potency, µM (top dose mostly 38.3 µM), for inactives: at the highest dose reporter change, positive = more light; AID 2288; 340,000 tested, under 10 active; active = well fitted rising curve with a large enough effect; inconclusive = small, poorly fitted or top-dose-only effect; inactive = no such curve, though single readings can be large or run the other way;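 note: % of control where 0% means no effect; miR-21 action dims this reporter so a rising signal means less miR-21 action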
#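 Using DMEM plus 10% FBS, HeLa miR-21-FLuc cells are incubated with test compounds (final up to about 40uM) for 48 hours; firefly luciferase signal is then imaged following reagent-mediated lysis.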
# GALK inh – galactokinase (human) inhibition; P51570; Purified GALK, Kinase-Glo residual ATP luminescence; Potency, µM (highest dose often 57.5 µM), for inactives: top-dose activity change, negative = inhibition, actives largely listed as inhibitors; 270,000 compounds, 0.007% hits; also: potency is read from the fitted curve at half-maximal effect; % is scaled to controls: 0 for no effect and ±100 for the full control effect
#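 Quantitative HTS: GALK 5 nM, ATP 35 uM, galactose 100 uM, 1 h room temperature, then luciferase-based ATP detection.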
# Nrf2 block – Nrf2 pathway inhibition. Potency, µM (series often up to 46 µM), for the others: top-dose activity change, negative = inhibition, usual class: inhibitors. A549 ARE-Fluc reporter, luciferase luminescence, 18-24 h. 360,000 compounds, 2.1% hits; also: potency is read from the fitted curve at half-maximal effect; % is scaled to controls: 0 for no effect and ±100 for the full control effect; nearly all actives have a fitted effect of over 60% in size
#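 Concentration-response testing used A549 ARE_Fluc cells at 5000 cells/well. Following an 18-24 h compound incubation, viability was read by fluorescence (Ex 405/Em 525) and luciferase output by luminescence.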
# * = called active by the depositor; u = inconclusive; x = not tested or not shown; [ ] = remark or other dose. In the library only some 2.2% were active in any assay of this set; here they are far more common. Unless noted, calls follow the shape of the dose curve; as a rule, active = well fitted curve in the direction sought with a large enough effect; inconclusive = small, poorly fitted or top-dose-only effect, or another doubt; inactive = no such curve, though single readings can be large; an effect the other way counts as inactive or inconclusive.
# Abbreviations – A = A549 viability; B = PI4K2A block; C = Nrf2 activator; D = miR-21 reporter; E = GALK inh; F = Nrf2 block
(1) CC(C)CCN(C(=O)Nc1ccc(Cl)c(Cl)c1)C1CCN(C(C)C)CC1
  A = -1.5% | B = -0.9 | C = 25.7% | D = -2.3% | E = x | F = x

(2) O=S(=O)(c1ccc2c(c1)OCCO2)N1CCN(S(=O)(=O)c2ccccc2Cl)CC1
  A = 3.8% | B = x | C = x | D = x | E = x | F = 16.4%

(3) COc1ccc(CSc2nnc(SCC(=O)Nc3ccccc3-c3ccccc3)s2)cc1
  A = x | B = -8.2 | C = x | D = x | E = x | F = x

(4) Cc1cc(C)nc(OC(C(=O)O)C(OCCc2ccccc2)(c2ccccc2)c2ccccc2)n1 (stereo unspecified)
  A = -14.5% | B = 2.3 | C = -0.5% | D = 16.1% | E = 5.3% | F = 13µM*

(5) c1ccc(Cc2nnc(N3CCCCC3)c3ccccc23)cc1
  A = u | B = -3.3 | C = 1.6% | D = -9.9% | E = 0.3% | F = 18.4µM*

(6) CCSc1nnc(NC(=O)C2CCN(S(=O)(=O)c3ccccc3C(F)(F)F)CC2)s1
  A = -1.8% | B = -6.7 | C = -0.3% | D = 7.9% | E = 0.7% | F = 23.1µM*

(7) COc1cccc(OCCSc2nc3ccccc3n2CC(=O)N2CCCCC2)c1
  A = -14.6% | B = 6.1 | C = 1.1% | D = 20.5% | E = x | F = 18.4µM*

(8) COc1cccc(OCCSc2nc3ccccc3n2CC(=O)N2CCOCC2)c1
  A = -5.6% | B = -3.2 | C = -0.2% | D = 19.0% | E = x | F = u

(9) O=C(CSc1ncnc2ccccc12)NCc1ccco1
  A = -1.5% | B = -16.5 | C = 7.9% | D = -4.1% | E = -0.3% | F = -3.0%

(10) N#Cc1ccsc1NC(=O)CSc1ncnc2ccccc12
  A = 8.5% | B = -12.4 | C = 12.6µM* | D = -19.5% | E = -2.5% | F = u

(11) O=C(CSc1ncnc2ccccc12)c1ccco1
  A = -15.2% | B = -0.3 | C = 2.82µM* | D = -27.5% | E = 0.5% | F = 23.7%

(12) N#Cc1ccsc1NC(=O)CSc1ncn[nH]1
  A = -14.9%[1.84 µM] | B = -1.4 | C = 0.9% | D = -13.1% | E = -3.2% | F = 0.5%

(13) CCCC(C)NC(=O)CC1Oc2ccccc2NC1=O (stereo unspecified)
  A = x | B = 0.1 | C = x | D = x | E = x | F = x

(14) CCCCn1c(SCc2ccc(C(=O)OC)o2)nc2cc(S(N)(=O)=O)ccc21
  A = -8.6% | B = 0.8 | C = 3.2% | D = 9.4% | E = 1.3% | F = 16.4µM*

(15) Nc1cc(-c2ccccc2)nn1S(=O)(=O)c1ccc(F)cc1
  A = -1.6% | B = 0.0 | C = -0.5% | D = 22.3% | E = 2.2% | F = 18.4µM*

# Next section.
# Abbreviations – A = A549 viability; B = PI4K2A block; C = Nrf2 activator; D = miR-21 reporter; E = GALK inh; F = Nrf2 block
(16) COc1ccc(-c2cc(N)n(S(=O)(=O)c3ccc(F)cc3)n2)cc1OC
  A = -4.8% | B = 5.5 | C = 0.1% | D = 17.2% | E = 0.6% | F = 16.4µM*

(17) CN1CCN(c2ccc(-c3ccc4ccccc4n3)cc2)CC1
  A = 6.6% | B = -8.0 | C = -2.5% | D = u | E = 10.4% | F = 10.3µM*

(18) O=C(NCCc1ccccc1)OCc1cn(Cc2cc(F)ccc2F)nn1
  A = x | B = -1.0 | C = x | D = x | E = x | F = x

(19) N#Cc1c(-c2ccc(Cl)cc2)no[n+]1[O-]
  A = -3.6% | B = x | C = x | D = x | E = x | F = -7.6%

(20) Cc1[nH][nH]c(=O)c1C(c1ccc(-c2ccc(C(=O)O)cc2)o1)c1c(C)[nH][nH]c1=O
  A = -9.8% | B = -54.5* | C = 5.2% | D = -3.7% | E = -28.0% | F = -24.9%

(21) Cc1[nH][nH]c(=O)c1C(c1ccc(-c2ccc(F)cc2)o1)c1c(C)[nH][nH]c1=O
  A = -5.3% | B = u | C = -0.2%[9.22 µM] | D = -10.1% | E = -1.0% | F = 0.4%

(22) O=C(COc1cccc(NC(=O)c2ccccc2)c1)c1ccccc1
  A = -14.7% | B = -0.5 | C = 0.1% | D = -6.6% | E = -0.4% | F = 20.6µM*

(23) O=C(COc1cccc(NC(=O)c2cccc([N+](=O)[O-])c2)c1)c1ccc(Br)cc1
  A = u | B = 7.6 | C = 0.3% | D = u | E = -1.2% | F = 20.6µM*

(24) Cc1cc2c(s1)c1cnn(Cc3c(F)c(F)c(C(F)(F)F)c(F)c3F)c(=O)c1n2C
  A = 2.0% | B = x | C = x | D = x | E = x | F = 1.8%

(25) CC(=O)c1cc(-c2ccc(-c3ccccc3)c(F)c2)c(=O)n2c1CCC2
  A = x | B = -1.5 | C = x | D = x | E = x | F = x

(26) Brc1ccc2[nH]c3c(N4CCc5ccccc5C4)ncnc3c2c1
  A = -13.4% | B = -2.8 | C = 3.0% | D = 26.5% | E = -0.2% | F = 9.2µM*

(27) COc1ccc2[nH]c3c(N4CCC(O)(c5cccc(C(F)(F)F)c5)CC4)ncnc3c2c1
  A = u | B = 0.0 | C = -1.4% | D = u | E = -0.1% | F = 23.1µM*

(28) Cc1ccc2[nH]c3c(N4CCc5ccccc5C4)ncnc3c2c1
  A = -27.3% | B = -1.7 | C = 8.6% | D = 11.7% | E = x | F = 7.31µM*

(29) Clc1ccc2[nH]c3c(N4CCC5(CC4)OCCO5)ncnc3c2c1
  A = -17.5% | B = 10.7 | C = 4.1% | D = 26.6% | E = -1.3% | F = 20.6µM*

(30) O=C(c1ccccc1I)N1CCC(Oc2cccnc2)CC1
  A = x | B = -1.2 | C = x | D = x | E = x | F = x

# Some of the entries above, reformatted.
2: O=S(=O)(c1ccc2c(c1)OCCO2)N1CCN(S(=O)(=O)c2ccccc2Cl)CC1
  A549 viability = 3.8% | PI4K2A block = x | Nrf2 activator = x | miR-21 reporter = x | GALK inh = x | Nrf2 block = 16.4%

3: COc1ccc(CSc2nnc(SCC(=O)Nc3ccccc3-c3ccccc3)s2)cc1
  A549 viability = x | PI4K2A block = -8.2 | Nrf2 activator = x | miR-21 reporter = x | GALK inh = x | Nrf2 block = x

4: Cc1cc(C)nc(OC(C(=O)O)C(OCCc2ccccc2)(c2ccccc2)c2ccccc2)n1 (stereo unspecified)
  A549 viability = -14.5% | PI4K2A block = 2.3 | Nrf2 activator = -0.5% | miR-21 reporter = 16.1% | GALK inh = 5.3% | Nrf2 block = 13µM*

# Other compounds follow:
# Abbreviations – A = A549 viability; B = PI4K2A block; C = Nrf2 activator; D = miR-21 reporter; E = GALK inh; F = Nrf2 block
(31) COc1ccc(C2Nc3ccccc3C(=O)N2Cc2ccccc2)cc1Oc1ccc(NC(C)=O)cc1 (stereo unspecified)
  A = -11.2% | B = x | C = x | D = x | E = x | F = u

(32) COc1cc(-c2c(C(=O)c3ccccc3)[nH]c(N)c2C(N)=O)ccc1O
  A = x | B = -25.4 | C = x | D = x | E = x | F = x

(33) COc1cccc(N2CCN(C(=O)C3CCCN(S(=O)(=O)c4cccc5nsnc45)C3)CC2)c1 (stereo unspecified)
  A = -10.0% | B = 1.3 | C = 0.4% | D = 0.7% | E = x | F = 16.4µM*

(34) CCOc1ccc(S(=O)(=O)N2CCCC(C(=O)N3CCN(c4ccccc4)CC3)C2)cc1 (stereo unspecified)
  A = -18.2% | B = -0.1 | C = -0.1% | D = 17.6% | E = -6.6% | F = 23.1µM*

(35) CC(=O)c1c(C)[nH]c(C(=O)OCC(=O)N2CCN(S(=O)(=O)c3ccc(C)cc3C)CC2)c1C
  A = -14.4% | B = 2.0 | C = -0.6% | D = 25.9% | E = -2.5% | F = u

(36) CC(=O)c1ccc(N2CCN(C(=O)C3CCCN(S(=O)(=O)c4ccc(Br)s4)C3)CC2)cc1 (stereo unspecified)
  A = -7.7% | B = 2.0 | C = 3.1% | D = 16.5% | E = x | F = 16.4µM*

(37) CC(=O)c1c(C)[nH]c(C(=O)OCC(=O)N2CCN(S(=O)(=O)c3ccc(C)cc3)CC2)c1C
  A = -4.2% | B = 1.5 | C = -0.1% | D = x | E = x | F = 16.4µM*

(38) CCOC(=O)N1CCN(C(=O)C2CCCN(S(=O)(=O)c3ccc(OCC)cc3)C2)CC1 (stereo unspecified)
  A = -5.0% | B = -5.1 | C = -0.6% | D = 6.8% | E = 2.9% | F = u

(39) O=C(NCc1ccccc1)OCCN1C(=O)CCC12CCC(c1ccc(Cl)cc1)CC2 (stereo unspecified)
  A = x | B = 2.4 | C = x | D = x | E = x | F = x

(40) COc1ccc(OC)c(S(=O)(=O)N2CCCCC2C(=O)N2CCN(c3ccc(F)cc3)CC2)c1 (stereo unspecified)
  A = x | B = 0.9 | C = x | D = x | E = x | F = x

(41) CCOc1ccc(S(=O)(=O)N2CCN(C(=O)COc3ccc(Br)cc3)CC2)cc1
  A = u | B = 0.6 | C = 4.0% | D = x | E = x | F = 16.4µM*

(42) CCOc1ccc(OCC(=O)N2CCN(S(=O)(=O)c3ccccc3)CC2)cc1
  A = x | B = 1.5 | C = -1.3% | D = x | E = x | F = x

(43) O=C(NC1CCCCN(Cc2cccc(F)c2)C1=O)c1cccc(F)c1 (stereo unspecified)
  A = x | B = 0.6 | C = x | D = x | E = x | F = x

(44) C=CCNC(=S)NNC(=O)c1ccc(OCCC)cc1
  A = -6.6% | B = 3.1 | C = 0.3% | D = -9.4% | E = -5.4% | F = -2.7%

(45) CCCOc1ccc(C(=O)NNC(=S)NC(=O)CC)cc1
  A = u | B = 13.9 | C = -0.4% | D = 20.3% | E = x | F = 4.61µM*

(46) CN(Cc1ccccc1)S(=O)(=O)c1cccc(C(=O)OCc2ccccc2)c1
  A = x | B = -0.8 | C = x | D = x | E = x | F = x
